# Measurements published in patent EP0076669A1, “Novel 3-phenyl-1-indanamines, pharmaceutical compositions and methods of preparation” (KEFALAS A/S, priority 1981, dated 1983).
# The chains behind the UniProt entries cited, without tags or fusion partners.
# UniProt P23977, whole entry: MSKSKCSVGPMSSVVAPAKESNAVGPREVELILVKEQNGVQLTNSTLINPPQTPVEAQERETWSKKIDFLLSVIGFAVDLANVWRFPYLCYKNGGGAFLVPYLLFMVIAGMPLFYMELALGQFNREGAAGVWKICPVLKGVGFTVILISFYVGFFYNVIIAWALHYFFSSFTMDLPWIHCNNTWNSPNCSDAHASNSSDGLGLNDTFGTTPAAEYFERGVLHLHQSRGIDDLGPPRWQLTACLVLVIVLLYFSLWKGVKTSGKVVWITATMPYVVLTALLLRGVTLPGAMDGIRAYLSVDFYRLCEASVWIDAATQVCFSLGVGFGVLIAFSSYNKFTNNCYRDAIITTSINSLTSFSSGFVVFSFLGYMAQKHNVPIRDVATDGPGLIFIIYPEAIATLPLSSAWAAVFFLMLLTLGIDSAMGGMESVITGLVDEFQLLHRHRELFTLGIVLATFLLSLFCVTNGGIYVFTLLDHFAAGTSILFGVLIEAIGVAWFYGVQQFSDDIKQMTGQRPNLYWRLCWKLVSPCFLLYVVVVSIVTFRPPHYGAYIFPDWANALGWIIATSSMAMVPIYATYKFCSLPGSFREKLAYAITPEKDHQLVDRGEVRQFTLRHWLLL
# pIC50: −log10 of the molar value. Where a name gives a salt, the structure may show the parent alone.
# Biological target: T1, ^3H-DA uptake in striatal synaptosomes (Rattus norvegicus, UniProt P23977)
# T1 construct: the two corpura striata are dissected out and gently homogenized; from tissue; host or cells: rat corpus striatum, synaptosomal P2 fraction
# Experiment: biochemical
# Parameters: species or system Rats
# Method: ^3H-DA uptake in striatal synaptosomes in vitro.
# 0.32 M sucrose containing 1 mM Nialamide
# Krebs-Ringer-phosphate buffer, pH 7.4
# 3,4-dihydroxyphenylethylamine [ethyl-1-^3H(N)] = ^3H-DA, spc. act. app. 15 Ci/mmol, New England Nuclear
# Thomas Tissue Grinder, clearance 0.004-0.006 inch.
# Rats are killed by a blow to their head, exsanguinated and their brains removed. The brain is placed on a precooled glassplate, and the two corpura striata are dissected out and gently homogenized in 40 volumes of ice cold 0.32 M sucrose containing 1 mM of nialamide using a hand homogenizer with teflon pestle. The P2-fraction (synaptosomal fraction) is obtained by centrifugation (600 g, 10 min., 25000 g, 55 min. 4 °C) and suspended in 40 volumes of a modified Krebs-Ringer-phosphate buffer, pH 7.4. To 200µl of the synaptosomal fraction on ice are added 3700 µl modified Krebs-Ringer-phosphate buffer - containing test compounds. After a preincubation at 37°C for 5 min. […] The incubation is terminated by filtering the samples under vacuum through Millipore filters with a wash of 5 ml buffer containing 10 µM of unlabelled DA. After solubilizing the filters in 1 ml of cellosolve the radioactivity is determined by liquid scintillation counting after the addition of 10 ml of Insta-Gel. The unspecific binding of ^3H-DA is determined by incubating control samples on ice instead of at 37 °C.
# All experiments are performed in ttriplicate.
# The mean of all control samples and ice samples are calculated.
row,Compound,pIC50
1,"CN[C@@H]1C[C@H](c2ccc(Cl)c(Cl)c2)c2ccccc21 (relative stereo) [Lu 19-006-c, cis-N-methyl-3-(3',4'-dichlorophenyl)-1-indanamine]",8.28
2,"CNC1CC(c2ccc(Cl)c(Cl)c2)c2ccccc21 (single isomer, unassigned; (-)) [Lu 20-043-c, (-) trans N-methyl-3-(3,4-dichlorophenyl)-1-indanamine, hydrochloride]",8.66
3,"CN[C@@H]1C[C@@H](c2ccc(Cl)c(Cl)c2)c2ccccc21 (single isomer, unassigned) [Lu 20-042-c, (+) trans N-methyl-3-(3,4-dichlorophenyl)-1-indanamine, hydrochloride]",8.72
4,"CN[C@@H]1C[C@@H](c2ccc(Cl)c(Cl)c2)c2ccccc21 (relative stereo) [Lu 19-005-c, trans-N-methyl-3-(3',4'-dichlorophenyl)-I-indanamine]",9.23
